Assay results published in PubChem BioAssay AID602 (SRMLSC, 2007).
This is a selection; strong and weak results do not stand in their true shares. Calls of active or inactive are those of the source.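 How the source made its calls: active means viability drop by adding the cancer drug above about 55%, with treated viability meeting a 40% cutoff (limit read from the data); inactive means the rest, inconclusive results apart.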

Experiment: MRP1 drug-resistance reversers in H69AR cells – cell-based, doxorubicin co-treatment, primary screen (AID 602);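 further: viability without doxorubicin minus viability with 2 µM doxorubicin for each compound; larger differential means the compound sensitizes cells more to doxorubicin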
Conditions: H69AR cells + 2 uM doxorubicin, CellTiter-Glo, 72 h; at 10 µM; stronger effect = higher value

Compound	differential viability (reversal)
c1ccc(CN2CCC(Nc3ccccc3)CC2)cc1	inactive: 16.3%
N/C(=N\O)c1c(N)no[n+]1[O-]	inactive: 4.81%
CCC(CO)(C(=O)OC1CN2CCC1CC2)c1ccccc1 (centres undefined)	inactive: -0.32%
CCOc1ncccc1C(=O)NCC1(N2CCOCC2)CCCCC1	inactive: 7.59%
Fc1ccccc1NC1CCN(Cc2ccccc2)CC1	inactive: 2.13%
O=C(OC1CN2CCC1CC2)C1c2ccccc2Oc2ccccc21 (centres undefined)	inactive: 4.39%
O=C(NCC1(N2CCOCC2)CCCCC1)c1cc2ccccc2o1	inactive: -0.43%
O=C(NCC1(N2CCOCC2)CCCCC1)c1cc(=O)[nH]c2ccccc12	inactive: 0.35%
N#CC1(Nc2ccccc2)CCN(CCc2ccccc2)CC1	inactive: 7.48%
